Measurements published in patent US12359173B2, “Serum-free and xeno-free culture medium for expanding mesenchymal stem cells” (NUWACELL BIOTECHNOLOGIES CO., LTD., priority 2023, dated 2025).

System: iMSCs
Test: iMSC expansion, seeded at 1000 cells/well, day 10 morphology and cell number
Format: cell-based
Conditions: Example 13, 4 mg/L dialyzed HSA, 25 μg/ml heparin sodium, FIG. 13
Description: Cryopreserved iMSCs (RC01005, Nuwacell Co., Ltd.) were seeded in 6-well plates at 1000 cells/well in M1 medium to thaw the cells. The above medium was replaced 24 h later with 2 ml/well of the following medium: M1, SFM-M, PPRF, or MEM-FBS. M1 medium contained IMDM (+NaHCO3)/F12 (50%/50%), 2% by volume of Ultroser G (a Serum Replacement (SR)), 1% by volume of Glutamax, 1-150 μg/ml (e.g., 120 μg/ml) of transferrin, 5 μg/ml of insulin, 1-150 μg/ml (e.g., 110 μg/ml) of Mg Ascorbate, 20 μM of Ethanolamine, and 10 μM of Putrescine 2HCl. […]
Cryopreserved iMSCs (RC01005, Nuwacell Co., Ltd.) were seeded in 6-well plates at 1000 cells/well in M1 medium to thaw the cells. […] On day 10 of culture, the cells were digested by solase (RP01021, Nuwacell Co., Ltd.) for 3 min and collected, and then centrifugated, and with the supernatant removed, resuspended in the corresponding medium, and the number of iMSC cells was counted by cell viability analyzer (Vi-CELLTMXR, BECKMAN COULTER) (FIG. 5). […]

## dialyzed HSA: human serum albumin dialyzed in DPBS at 4° C. overnight, 15 KD bag
  effect of addition to M3 on iMSC growth: could significantly lower the required HPLT concentration in promoting iMSC growth
